Results from US10053433B2, “Androgen receptor antagonists” (THE REGENTS OF THE UNIVERSITY OF CALIFORNIA, priority 2014, dated 2018).

Chains of the proteins cited; added tags and fusions are not shown. A line that says so, or that is headed by a name, gives the form on record, which may keep a tag or linker. Residues count along the entry.
UniProt P10275, 669-900: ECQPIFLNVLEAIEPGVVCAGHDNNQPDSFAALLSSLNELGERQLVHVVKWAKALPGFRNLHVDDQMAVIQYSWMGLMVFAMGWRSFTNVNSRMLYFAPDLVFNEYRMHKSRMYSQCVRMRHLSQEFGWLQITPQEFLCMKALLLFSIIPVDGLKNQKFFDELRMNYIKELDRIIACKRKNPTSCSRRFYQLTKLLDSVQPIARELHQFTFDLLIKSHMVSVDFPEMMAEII
UniProt P10275, other isoform, or with tags, fused parts or gaps: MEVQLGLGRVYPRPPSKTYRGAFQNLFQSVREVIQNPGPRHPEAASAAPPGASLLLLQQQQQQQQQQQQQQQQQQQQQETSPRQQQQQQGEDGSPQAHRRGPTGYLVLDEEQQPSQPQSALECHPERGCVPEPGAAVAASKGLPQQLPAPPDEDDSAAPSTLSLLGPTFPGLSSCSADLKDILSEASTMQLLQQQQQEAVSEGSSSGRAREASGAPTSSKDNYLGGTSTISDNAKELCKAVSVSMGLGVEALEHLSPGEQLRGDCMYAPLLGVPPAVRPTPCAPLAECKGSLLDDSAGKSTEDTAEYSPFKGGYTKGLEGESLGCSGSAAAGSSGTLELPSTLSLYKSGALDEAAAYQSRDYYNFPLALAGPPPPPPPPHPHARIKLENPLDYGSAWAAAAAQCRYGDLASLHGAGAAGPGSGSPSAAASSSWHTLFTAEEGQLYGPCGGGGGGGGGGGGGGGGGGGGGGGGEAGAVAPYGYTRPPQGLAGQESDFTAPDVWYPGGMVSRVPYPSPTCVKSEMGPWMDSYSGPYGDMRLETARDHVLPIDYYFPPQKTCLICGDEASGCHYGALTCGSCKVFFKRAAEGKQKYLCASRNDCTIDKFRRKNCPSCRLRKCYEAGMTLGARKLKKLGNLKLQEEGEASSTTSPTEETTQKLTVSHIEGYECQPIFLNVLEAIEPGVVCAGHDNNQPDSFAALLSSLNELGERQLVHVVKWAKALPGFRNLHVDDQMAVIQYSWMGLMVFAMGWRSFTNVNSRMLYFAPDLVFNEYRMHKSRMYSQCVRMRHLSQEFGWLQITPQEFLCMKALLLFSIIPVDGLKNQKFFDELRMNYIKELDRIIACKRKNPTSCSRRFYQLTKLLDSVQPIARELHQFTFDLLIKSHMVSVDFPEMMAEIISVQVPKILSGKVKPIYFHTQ
UniProt P10275, whole entry T878A: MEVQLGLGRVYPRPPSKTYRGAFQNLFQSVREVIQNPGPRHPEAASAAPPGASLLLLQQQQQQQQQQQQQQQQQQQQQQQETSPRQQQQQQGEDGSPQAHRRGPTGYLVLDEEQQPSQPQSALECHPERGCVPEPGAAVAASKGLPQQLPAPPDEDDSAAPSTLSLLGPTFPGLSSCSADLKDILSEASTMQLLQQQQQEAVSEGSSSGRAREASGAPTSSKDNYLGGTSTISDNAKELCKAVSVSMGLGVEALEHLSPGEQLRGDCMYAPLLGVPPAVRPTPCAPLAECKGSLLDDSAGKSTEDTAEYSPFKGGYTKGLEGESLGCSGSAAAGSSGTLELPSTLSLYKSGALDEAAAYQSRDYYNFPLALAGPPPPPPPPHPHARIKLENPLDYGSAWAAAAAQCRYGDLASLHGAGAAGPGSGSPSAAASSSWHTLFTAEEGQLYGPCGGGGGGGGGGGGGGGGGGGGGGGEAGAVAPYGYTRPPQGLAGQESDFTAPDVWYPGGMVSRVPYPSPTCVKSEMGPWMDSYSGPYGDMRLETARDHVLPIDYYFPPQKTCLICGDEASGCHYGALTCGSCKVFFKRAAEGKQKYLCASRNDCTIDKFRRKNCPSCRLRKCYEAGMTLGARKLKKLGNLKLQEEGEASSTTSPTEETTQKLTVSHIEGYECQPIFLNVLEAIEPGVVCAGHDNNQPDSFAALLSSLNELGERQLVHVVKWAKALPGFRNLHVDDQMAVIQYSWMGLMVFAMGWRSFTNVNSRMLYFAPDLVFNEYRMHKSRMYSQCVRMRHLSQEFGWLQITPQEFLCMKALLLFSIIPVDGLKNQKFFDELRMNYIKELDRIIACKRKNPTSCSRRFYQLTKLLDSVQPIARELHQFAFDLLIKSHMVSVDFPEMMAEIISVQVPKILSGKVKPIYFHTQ

Legend:
[1] = biological target: AR ligand-binding domain (AR LBD) (Homo sapiens (Human), UniProt P10275); experiment: Gal4-luciferase reporter assay, Gal-AR LBD in HeLa cells; assay type: cell-based
[2] = biological target: full length AR (Homo sapiens (Human), UniProt P10275); experiment: mmTV-luciferase reporter assay, full length AR in HeLa cells; assay type: cell-based
[3] = tested on: xenograft model of human prostate cancer; settings: compared with MDV3100 and RD162; cited from earlier work
[4] = biological target: endogenous full length AR (Homo sapiens (Human), UniProt P10275, T878A); experiment: mmTV-luciferase reporter assay, endogenous AR in LNCaP cells; assay type: cell-based

C[C@](O)(CS(=O)(=O)c1ccc(F)cc1)C(=O)Nc1cc(C(F)(F)F)c([N+](=O)[O-])cn1 [FC 4.129]
Fold chg (LBD) [1]: 0.19
Fold chg (FL) [2]: 0.12

CNC(=O)c1ccc(N2C(=S)N(c3cnc(C#N)c(C(F)(F)F)c3)C(=O)C23CCC3)cc1F [ARN-509]
efficacy in xenograft model of human prostate cancer [3]: greater efficacy

C[C@](O)(CS(=O)(=O)c1ccc(F)cc1)C(=O)Nc1cnc(C#N)c(C(F)(F)F)c1
IC50 [4]: 140 ± 100 nM
